Values of other authors as cited in patent US20250325636A1, “USE OF ENDOTHELIN RECEPTOR TYPE B AGONISTS FOR THE TREATMENT OF AORTIC VALVE STENOSIS” (INSTITUT NATIONAL DE LA SANTÉ ET DE LA RECHERCHE MÉDICALE, priority 2022, published 2025).

Amino acid sequences for entries named in this document (tags omitted). Residues count along the entry.
UniProt P25101, 21-427: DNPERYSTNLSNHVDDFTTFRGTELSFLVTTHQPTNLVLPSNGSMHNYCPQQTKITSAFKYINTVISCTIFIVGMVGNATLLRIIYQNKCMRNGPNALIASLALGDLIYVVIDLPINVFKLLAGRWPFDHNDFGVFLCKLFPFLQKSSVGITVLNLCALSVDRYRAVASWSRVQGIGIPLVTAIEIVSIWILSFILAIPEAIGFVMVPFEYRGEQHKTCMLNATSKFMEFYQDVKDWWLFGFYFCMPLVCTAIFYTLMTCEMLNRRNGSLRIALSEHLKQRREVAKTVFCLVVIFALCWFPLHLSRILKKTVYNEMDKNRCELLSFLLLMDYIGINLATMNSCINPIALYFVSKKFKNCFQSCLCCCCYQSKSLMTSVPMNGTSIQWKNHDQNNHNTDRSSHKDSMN

Molecular target: ETA (Homo sapiens, UniProt P25101)
Details: ET-1 and ET-2 equipotent; cited from earlier work

## Endothelin 3 [ET-3]
  lower potency at the ETA subtype compared with ET-1 and ET-2: at least 100 fold
